According to ChEMBL document CHEMBL1152298 (J Med Chem, 2008):

Assay: Ratio of Ki for GABAA alpha1 T162C beta2gamma2 receptor mutant to Ki for GABAA alpha-1-beta-2-gamma-2 receptor

CN1CCN(C(=O)O[C@H]2c3nccnc3C(=O)N2c2ccc(Cl)cn2)CC1 [ESZOPICLONE]
Ratio Ki: 0.7
